Laboratory results taken from BindingDB's records for doi:10.1111/j.1476-5381.1995.tb14977.x (Syntex Discovery Research, 1995).

The chains behind the UniProt entries cited, without tags or fusion partners.
UniProt P14842, whole entry: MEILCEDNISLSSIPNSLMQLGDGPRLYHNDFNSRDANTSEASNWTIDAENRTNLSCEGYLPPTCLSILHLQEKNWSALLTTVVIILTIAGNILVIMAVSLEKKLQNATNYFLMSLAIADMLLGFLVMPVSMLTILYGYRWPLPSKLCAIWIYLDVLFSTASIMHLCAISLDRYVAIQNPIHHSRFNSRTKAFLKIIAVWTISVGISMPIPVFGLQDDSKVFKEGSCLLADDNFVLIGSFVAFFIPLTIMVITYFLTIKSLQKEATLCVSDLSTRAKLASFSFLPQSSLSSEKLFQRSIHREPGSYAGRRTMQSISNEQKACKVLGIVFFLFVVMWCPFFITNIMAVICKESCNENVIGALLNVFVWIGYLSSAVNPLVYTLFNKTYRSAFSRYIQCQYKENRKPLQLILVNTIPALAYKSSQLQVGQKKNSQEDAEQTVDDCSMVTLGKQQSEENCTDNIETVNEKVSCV
UniProt P30994, whole entry: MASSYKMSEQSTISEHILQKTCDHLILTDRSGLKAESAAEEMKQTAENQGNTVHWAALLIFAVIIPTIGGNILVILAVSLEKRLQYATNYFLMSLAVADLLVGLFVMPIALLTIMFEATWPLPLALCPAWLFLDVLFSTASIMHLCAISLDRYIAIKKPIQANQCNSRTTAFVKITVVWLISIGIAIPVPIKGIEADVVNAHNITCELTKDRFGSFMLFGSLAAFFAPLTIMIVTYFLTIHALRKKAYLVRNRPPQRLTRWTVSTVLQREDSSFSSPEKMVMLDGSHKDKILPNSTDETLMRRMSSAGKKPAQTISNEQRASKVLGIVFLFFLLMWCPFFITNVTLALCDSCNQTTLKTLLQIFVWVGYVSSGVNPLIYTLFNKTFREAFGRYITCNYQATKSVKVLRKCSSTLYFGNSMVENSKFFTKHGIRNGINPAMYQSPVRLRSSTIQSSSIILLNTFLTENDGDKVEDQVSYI

Key:
[1] = target: 5-hydroxytryptamine receptor 2A (Rattus norvegicus, UniProt P14842)
[2] = target: T1, 5-hydroxytryptamine receptor 2C (Rattus norvegicus, UniProt P08909)
T1 sequence (P08909 whole entry): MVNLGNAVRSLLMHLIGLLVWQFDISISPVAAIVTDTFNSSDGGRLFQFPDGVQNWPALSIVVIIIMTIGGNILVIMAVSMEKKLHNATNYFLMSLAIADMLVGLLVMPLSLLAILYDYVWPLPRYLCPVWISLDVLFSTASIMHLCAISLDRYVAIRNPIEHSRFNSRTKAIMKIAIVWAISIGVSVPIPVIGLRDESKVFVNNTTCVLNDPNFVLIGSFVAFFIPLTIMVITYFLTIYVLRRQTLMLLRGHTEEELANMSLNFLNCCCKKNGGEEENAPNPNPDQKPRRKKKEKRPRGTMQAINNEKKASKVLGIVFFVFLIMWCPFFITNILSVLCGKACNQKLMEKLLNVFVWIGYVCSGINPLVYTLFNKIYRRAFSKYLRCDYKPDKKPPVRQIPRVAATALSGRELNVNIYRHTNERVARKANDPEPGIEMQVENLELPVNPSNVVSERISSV

[3] = target: 5-hydroxytryptamine receptor 2B (Rattus norvegicus, UniProt P30994)

Ki [1]: 0.31 nM
Ki [2]: 1.58 nM
Ki [3]: 5.01 nM
Structure (SMILES): Cc1nc2sccn2c(=O)c1CCN1CCC(=C(c2ccc(F)cc2)c2ccc(F)cc2)CC1
